According to patent US9073931B2, “Liver X receptor modulators” (Vitae Pharmaceuticals, Inc., priority 2012, dated 2015):
pEC50, pKi: −log10 of the molar value. Where two headings read alike, the source gives them in different places.

Protein sequences, listed by entry. Tags and fused reporters are not part of them. Residues count along the entry.
UniProt P55055, 222-460: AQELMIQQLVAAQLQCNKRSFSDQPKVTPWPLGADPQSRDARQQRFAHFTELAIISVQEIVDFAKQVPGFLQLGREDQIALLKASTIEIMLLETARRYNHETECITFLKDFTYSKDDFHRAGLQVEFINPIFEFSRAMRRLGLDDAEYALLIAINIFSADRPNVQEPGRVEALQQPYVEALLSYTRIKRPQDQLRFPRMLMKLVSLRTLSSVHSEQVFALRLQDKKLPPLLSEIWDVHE

Experiments:
LBD of LXRβ [1] = biological target: T1, LBD of LXRβ (Homo sapiens (Human), UniProt P55055); test: cell-based
LBD of LXRβ [2] = biological target: T1, LBD of LXRβ
LXR β LBD protein = LXR β LBD protein (Homo sapiens (Human), UniProt P55055); test: LXR β radioligand binding assay (SPA, [3H]T0901317 competition); settings: competition with 15 nM [3H]T0901317, LXRβ LBD

| pEC50 (LBD of LXRβ [1]) | pEC50 (LBD of LXRβ [2]) | pKi (LXR β LBD protein) | Structure (SMILES) |
| --- | --- | --- | --- |
| 7.59 |  |  | CCC(O)c1cnc(N2CCn3c(nc4cc(CO)c(S(C)(=O)=O)cc43)[C@H]2C(C)C)nc1C(F)(F)F (single isomer, unassigned) [Compound E10b, 1-(2-(8-(hydroxymethyl)-1-isopropyl-7-(methylsulfonyl)-3,4-dihydrobenzo[4,5]imidazo[1,2-a]pyrazin-2(1H)-yl)-4-(trifluoromethyl)pyrimidin-5-yl)propan-1-ol] |
| 7.92 |  |  | CCC(O)c1cnc(N2CCn3c(nc4cc(CO)c(S(C)(=O)=O)cc43)[C@H]2C(C)C)nc1C(F)(F)F (single isomer, unassigned) [Compound E10c, 1-(2-(8-(hydroxymethyl)-1-isopropyl-7-(methylsulfonyl)-3,4-dihydrobenzo[4,5]imidazo[1,2-a]pyrazin-2(1H)-yl)-4-(trifluoromethyl)pyrimidin-5-yl)propan-1-ol] |
| 5.78 |  |  | CCC(O)c1cnc(N2CCn3c(nc4cc(CO)c(S(C)(=O)=O)cc43)[C@@H]2C(C)C)nc1C(F)(F)F (single isomer, unassigned) [Compound E10d, 1-(2-(8-(hydroxymethyl)-1-isopropyl-7-(methylsulfonyl)-3,4-dihydrobenzo[4,5]imidazo[1,2-a]pyrazin-2(1H)-yl)-4-(trifluoromethyl)pyrimidin-5-yl)propan-1-ol] |
| 7.35 |  | 7.77 | CC(C)[C@@H]1c2nc3cc(CO)c(S(C)(=O)=O)cc3n2CCN1c1ncc(CO)c(C(F)(F)F)n1 (single isomer, unassigned) [Compound E13a] |
| 5.98 |  | 5.98 | CC(C)[C@H]1c2nc3cc(CO)c(S(C)(=O)=O)cc3n2CCN1c1ncc(CO)c(C(F)(F)F)n1 (single isomer, unassigned) [Compound E13b] |
| 5.76 |  |  | CNC(=O)c1cnc(N2CCn3c(nc4cc(CO)c(S(C)(=O)=O)cc43)[C@H]2C(C)C)nc1C(F)(F)F (single isomer, unassigned) [Compound E16a] |
| < 4.70 |  | < 5.60 | CNC(=O)c1cnc(N2CCn3c(nc4cc(CO)c(S(C)(=O)=O)cc43)[C@@H]2C(C)C)nc1C(F)(F)F (single isomer, unassigned) [Compound E16b] |

The remaining lines, values behind:

| Structure (SMILES) | pEC50 (LBD of LXRβ [1]) | pEC50 (LBD of LXRβ [2]) | pKi (LXR β LBD protein) |
| --- | --- | --- | --- |
| CC(O)c1cnc(N2CCn3c(nc4cc(CO)c(S(C)(=O)=O)cc43)[C@@H]2C(C)C)nc1C(F)(F)F (single isomer, unassigned) [Compound E8a, 1-(2-(8-(hydroxymethyl)-1-isopropyl-7-(methylsulfonyl)-3,4-dihydrobenzo[4,5]imidazo[1,2-a]pyrazin-2(1H)-yl)-4-(trifluoromethyl)pyrimidin-5-yl)ethanol] | 5.69 |  |  |
| CC(O)c1cnc(N2CCn3c(nc4cc(CO)c(S(C)(=O)=O)cc43)[C@H]2C(C)C)nc1C(F)(F)F (single isomer, unassigned) [Compound E8b, 1-(2-(8-(hydroxymethyl)-1-isopropyl-7-(methylsulfonyl)-3,4-dihydrobenzo[4,5]imidazo[1,2-a]pyrazin-2(1H)-yl)-4-(trifluoromethyl)pyrimidin-5-yl)ethanol] | 7.68 |  |  |
| CC(O)c1cnc(N2CCn3c(nc4cc(CO)c(S(C)(=O)=O)cc43)[C@H]2C(C)C)nc1C(F)(F)F (single isomer, unassigned) [Compound E8c, 1-(2-(8-(hydroxymethyl)-1-isopropyl-7-(methylsulfonyl)-3,4-dihydrobenzo[4,5]imidazo[1,2-a]pyrazin-2(1H)-yl)-4-(trifluoromethyl)pyrimidin-5-yl)ethanol] | 7.72 |  |  |
| CC(O)c1cnc(N2CCn3c(nc4cc(CO)c(S(C)(=O)=O)cc43)[C@@H]2C(C)C)nc1C(F)(F)F (single isomer, unassigned) [Compound E8d, 1-(2-(8-(hydroxymethyl)-1-isopropyl-7-(methylsulfonyl)-3,4-dihydrobenzo[4,5]imidazo[1,2-a]pyrazin-2(1H)-yl)-4-(trifluoromethyl)pyrimidin-5-yl)ethanol] |  | 5.69 |  |
| CCC(O)c1cnc(N2CCn3c(nc4cc(CO)c(S(C)(=O)=O)cc43)[C@@H]2C(C)C)nc1C(F)(F)F (single isomer, unassigned) [Compound E10a, 1-(2-(8-(hydroxymethyl)-1-isopropyl-7-(methylsulfonyl)-3,4-dihydrobenzo[4,5]imidazo[1,2-a]pyrazin-2(1H)-yl)-4-(trifluoromethyl)pyrimidin-5-yl)propan-1-ol] | 5.62 |  | < 5.60 |
